Values of other authors as cited in patent publication US8729026B2, “Method for inhibiting autophagy of motor neurons” (China Medical University, priority 2012, dated 2014).

Tested on: SOD1-G93A transgenic mice
Conditions: Riluzole, from reference Amyotrophic Lateral Sclerosis. 2009; 10: 85-94; cited from earlier work

Nc1nc2ccc(OC(F)(F)F)cc2s1 [Riluzole]
survival of SOD1-G93A transgenic mice: 140 days
